Experimental data published in patent US20260022143A1, “Cyclic Peptide Inhibitors of IL-23” (JANSSEN PHARMACEUTICA NV, priority 2022, published 2026).

biological target: T1, IL-23R (Homo sapiens, UniProt Q5VWK5); assay: IL23R Reporter Assay; type: cell-based; conditions: HEK293 cells containing IL-23R, IL-12RP1 and STAT-inducible firefly luciferase reporter; 10 ng/mL IL-23 (EC90); 5 h at 37° C.; read-out: IL23R Reporter Assay
T1 construct: host or cells: HEK293
T1 sequence (Q5VWK5 24-629): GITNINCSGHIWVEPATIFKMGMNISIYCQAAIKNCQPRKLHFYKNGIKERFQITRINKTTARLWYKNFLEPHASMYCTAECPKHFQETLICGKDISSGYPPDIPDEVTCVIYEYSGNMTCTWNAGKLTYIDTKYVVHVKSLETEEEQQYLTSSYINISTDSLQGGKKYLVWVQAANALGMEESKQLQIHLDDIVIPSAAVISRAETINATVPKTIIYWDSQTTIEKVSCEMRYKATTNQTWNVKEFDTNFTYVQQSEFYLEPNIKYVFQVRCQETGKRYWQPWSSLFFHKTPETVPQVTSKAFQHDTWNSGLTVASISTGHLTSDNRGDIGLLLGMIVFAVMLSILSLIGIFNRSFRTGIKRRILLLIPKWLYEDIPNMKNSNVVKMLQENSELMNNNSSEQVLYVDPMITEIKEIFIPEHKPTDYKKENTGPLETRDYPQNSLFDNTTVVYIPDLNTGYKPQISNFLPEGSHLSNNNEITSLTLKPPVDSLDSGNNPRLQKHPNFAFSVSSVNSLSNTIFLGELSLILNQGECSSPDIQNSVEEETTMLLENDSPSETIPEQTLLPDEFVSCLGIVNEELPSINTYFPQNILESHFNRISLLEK

Compound	IC50 [µM]
CC(=O)NCCCC[C@@H]1NC(=O)[C@H](Cc2c[nH]c3c(C)cccc23)NC(=O)[C@H]([C@@H](C)O)NC(=O)[C@H](CC(N)=O)NC(=O)[C@@H](NC(=O)CCOCCOCC[N+](C)(C)C)C(C)(C)SSC(C)(C)[C@@H](C(=O)N[C@@H](Cc2ccc(OCCNC(=N)N)cc2)C(=O)N[C@@H](Cc2ccc3ccccc3c2)C(=O)NC2(C(=O)N[C@@H](CCC(=O)O)C(=O)N[C@@H](CC(N)=O)C(=O)N[C@@H](Cc3cncc(C)c3)C(=O)N(C)CC(N)=O)CCOCC2)NC1=O [compound 514, cPEG3aCO-Pen(3)-N-T-7MeW-K(Ac)-Pen(3)-AEF(G)-2Nal-THP-E-N-5MePyridinAla-Sar-CONH2]	0.0047
CC(=O)N(C)CCCC[C@@H]1NC(=O)[C@H](Cc2c[nH]c3c(C)cccc23)NC(=O)[C@H]([C@@H](C)O)NC(=O)[C@H](CC(=O)N(C)C)NC(=O)[C@@H](NC(=O)CCOCCOCCN)C(C)(C)SSC(C)(C)[C@@H](C(=O)N[C@@H](Cc2ccc(OCCCCCN)cc2)C(=O)N[C@@H](Cc2ccc3ccccc3c2)C(=O)NC2(C(=O)N[C@@H](CCCCN(C)C(C)=O)C(=O)N[C@@H](CC(N)=O)C(=O)N[C@@H](Cc3cccnc3)C(=O)N(C)CC(=O)N(C)C)CCOCC2)NC1=O [compound 529, cPEG3AmCO-Pen(3)-N(N(Me)2)-T-7MeW-K(NMeAc)-Pen(3)-APF-2Nal-THP-K(NMeAc)-N-3Pya-Sar-CON(Me)2]	0.0033
CC(=O)NCCCC[C@@H]1NC(=O)[C@H](Cc2c[nH]c3c(-c4cccc(NC(C)=O)c4)cccc23)NC(=O)[C@H]([C@@H](C)O)NC(=O)[C@H](CC(N)=O)NC(=O)[C@@H](NC(=O)[C@@H](CCCNC(=N)N)NC(=O)CCOCCOCC[N+](C)(C)C)C(C)(C)SSC(C)(C)[C@@H](C(=O)N[C@@H](Cc2ccc(OCCN)cc2)C(=O)N[C@@H](Cc2ccc3ccccc3c2)C(=O)NC2(C(=O)N[C@@H](CCC(=O)O)C(=O)N[C@@H](CC(N)=O)C(=O)N[C@@H](Cc3cncc(C)c3)C(=O)N(C)CC(N)=O)CCOCC2)NC1=O [compound 536, cPEG3aCO-r-Pen(3)-N-T-7(3NAcPh)W-K(Ac)-Pen(3)-AEF-2Nal-THP-E-N-5MePyridinAla-Sar-CONH2]	0.0029
CC(=O)NCCCC[C@@H]1NC(=O)[C@H](Cc2c[nH]c3c(C)cccc23)NC(=O)[C@H]([C@@H](C)O)NC(=O)[C@H](CC(N)=O)NC(=O)[C@@H](NC(=O)[C@@H](CCCNC(=N)N)NC(=O)CCOCCOCC[N+](C)(C)C)C(C)(C)SSC(C)(C)[C@@H](C(=O)N[C@@H](Cc2ccc(OCCCCC[N+](C)(C)C)cc2)C(=O)N[C@@H](Cc2ccc3ccccc3c2)C(=O)NC2(C(=O)N[C@@H](CCC(=O)O)C(=O)N[C@@H](CC(N)=O)C(=O)N[C@@H](Cc3cncc(C)c3)C(=O)N(C)CC(N)=O)CCOCC2)NC1=O [compound 542, cPEG3aCO-r-Pen(3)-N-T-7MeW-K(Ac)-Pen(3)-TMAPF-2Nal-THP-E-N-5MePyridinAla-Sar-CONH2]	0.0019
CC(=O)N[C@@H](COCCOCCNC(=N)N)C(=O)N[C@@H]1C(=O)N[C@@H](CC(=O)N(C)C)C(=O)N[C@@H]([C@@H](C)O)C(=O)N[C@@H](Cc2c[nH]c3c(C)cccc23)C(=O)N[C@@H](CCCCN(C)C(C)=O)C(=O)N[C@H](C(=O)N[C@@H](Cc2ccc(OCCOCCOCC[N+](C)(C)C)cc2)C(=O)N[C@@H](Cc2ccc3ccccc3c2)C(=O)NC2(C(=O)N[C@@H](CCCCN(C)C(C)=O)C(=O)N[C@@H](CC(N)=O)C(=O)N[C@@H](Cc3cccnc3)C(=O)N(C)CC(N)=O)CCOCC2)C(C)(C)SSC1(C)C [compound 552, MeCO-gPEG2Ser-Pen(3)-N(N(Me)2)-T-7MeW-K(NMeAc)-Pen(3)-APEG3F-2Nal-THP-K(NMeAc)-N-3Pya-Sar-CON(Me)2]	0.0053

The remaining lines, values ahead:

IC50 [µM]	Compound
0.0053	CC(=O)NCCCC[C@@H]1NC(=O)[C@H](Cc2c[nH]c3c(-c4cccc(NC(C)=O)c4)cccc23)NC(=O)[C@H]([C@@H](C)O)NC(=O)[C@H](CC(N)=O)NC(=O)[C@@H](NC(=O)[C@@H](CCCC[N+](C)(C)C)NC(C)=O)C(C)(C)SSC(C)(C)[C@@H](C(=O)N[C@@H](Cc2ccc(OCCCCC[N+](C)(C)C)cc2)C(=O)N[C@@H](Cc2ccc3ccccc3c2)C(=O)NC2(C(=O)N[C@@H](CCC(=O)O)C(=O)N[C@@H](CC(N)=O)C(=O)N[C@@H](Cc3cncc(C)c3)C(=O)N(C)CC(N)=O)CCOCC2)NC1=O [compound 513, MeCO-k(Me)3-Pen(3)-N-T-7(3NAcPh)W-K(Ac)-Pen(3)-TMAPF-2Nal-THP-E-N-5MePyridinAla-Sar-CONH2]
0.0022	CC(=O)NCCCC[C@@H]1NC(=O)[C@H](Cc2c[nH]c3c(-c4cccc(NC(C)=O)c4)cccc23)NC(=O)[C@H]([C@@H](C)O)NC(=O)[C@H](CC(N)=O)NC(=O)[C@@H](NC(=O)[C@@H](CCCC[N+](C)(C)C)NC(C)=O)C(C)(C)SSC(C)(C)[C@@H](C(=O)N[C@@H](Cc2ccc(OCCN)cc2)C(=O)N[C@@H](Cc2ccc3ccccc3c2)C(=O)NC2(C(=O)N[C@@H](CCC(=O)O)C(=O)N[C@@H](CC(N)=O)C(=O)N[C@@H](Cc3cncc(C)c3)C(=O)N(C)CC(N)=O)CCOCC2)NC1=O [compound 535, MeCO-k(Me)3-Pen(3)-N-T-7(3NAcPh)W-K(Ac)-Pen(3)-AEF-2Nal-THP-E-N-5MePyridinAla-Sar-CONH2]
0.0029	CC(=O)NCCCC[C@@H]1NC(=O)[C@H](Cc2c[nH]c3cccc(C)c23)NC(=O)[C@H]([C@@H](C)O)NC(=O)[C@H](CC(N)=O)NC(=O)[C@@H](NC(C)=O)C(C)(C)SSC(C)(C)[C@@H](C(=O)N[C@@H](Cc2ccc(OCCCCC[N+](C)(C)C)cc2)C(=O)N[C@@H](Cc2ccc3ccccc3c2)C(=O)NC2(C(=O)N[C@@H](CCCCNC(C)=O)C(=O)N[C@@H](CC(N)=O)C(=O)N[C@@H](Cc3cccnc3)C(=O)N(C)CC(N)=O)CCCC2)NC1=O [compound 537, MeCO-Pen(3)-N-T-7MeW-K(Ac)-Pen(3)-TMAPF-2Nal-Acpx-K(Ac)-N-3Pya-Sar-CONH2]
0.0039	CC(=O)NCCCC[C@@H]1NC(=O)[C@H](Cc2c[nH]c3c(-c4cccc(NC(C)=O)c4)cccc23)NC(=O)[C@H]([C@@H](C)O)NC(=O)[C@H](CC(N)=O)NC(=O)[C@@H](NC(=O)[C@@H](CCCNC(=N)N)NC(C)=O)C(C)(C)SSC(C)(C)[C@@H](C(=O)N[C@@H](Cc2ccc(OCCCCC[N+](C)(C)C)cc2)C(=O)N[C@@H](Cc2ccc3ccccc3c2)C(=O)NC2(C(=O)N[C@@H](CCC(=O)O)C(=O)N[C@@H](CC(N)=O)C(=O)N[C@@H](Cc3cncc(C)c3)C(=O)N(C)CC(N)=O)CCOCC2)NC1=O [compound 540, MeCO-r-Pen(3)-N-T-7(3NAcPh)W-K(Ac)-Pen(3)-TMAPF-2Nal-THP-E-N-5MePyridinAla-Sar-CONH2]
0.0023	CC(=O)NCCCC[C@@H]1NC(=O)[C@H](Cc2c[nH]c3c(C)cccc23)NC(=O)[C@H]([C@@H](C)O)NC(=O)[C@H](CC(N)=O)NC(=O)[C@@H](NC(C)=O)C(C)(C)SSC(C)(C)[C@@H](C(=O)N[C@@H](Cc2ccc(OCC[N+](C)(C)C)cc2)C(=O)N[C@@H](Cc2ccc3ccccc3c2)C(=O)NC2(C(=O)N[C@@H](CCCCNC(C)=O)C(=O)N[C@@H](CC(N)=O)C(=O)N[C@@H](Cc3cccnc3)C(=O)N(C)CC(N)=O)CCOCC2)NC1=O [compound 561, MeCO-Pen(3)-N-T-7MeW-K(Ac)-pen(3)-AEF(NMe3)-2Nal-THP-K(Ac)-N-3Pya-Sar-CONH2]
0.0027	CC(=O)NCCCC[C@@H]1NC(=O)[C@H](Cc2c[nH]c3c(C)cccc23)NC(=O)[C@H]([C@@H](C)O)NC(=O)[C@H](CC(N)=O)NC(=O)[C@@H](NC(C)=O)C(C)(C)SSC(C)(C)[C@@H](C(=O)N[C@@H](Cc2ccc(OCC[N+]3(C)CCOCC3)cc2)C(=O)N[C@@H](Cc2ccc3ccccc3c2)C(=O)NC2(C(=O)N[C@@H](CCCCNC(C)=O)C(=O)N[C@@H](CC(N)=O)C(=O)N[C@@H](Cc3cccnc3)C(=O)N(C)CC(N)=O)CCOCC2)NC1=O [compound 562, MeCO-Pen(3)-N-T-7MeW-K(Ac)-Pen(3)-MMoEF-2Nal-THP-K(Ac)-N-3Pya-Sar-CONH2]
0.0013	CC(=O)NCCCC[C@@H]1NC(=O)[C@H](Cc2c[nH]c3ccccc23)NC(=O)[C@H]([C@@H](C)O)NC(=O)[C@H](CC(N)=O)NC(=O)[C@@H](NC(=O)[C@@H](CCCC[N+](C)(C)C)NC(C)=O)CCSC[C@@](C)(C(=O)N[C@@H](Cc2ccc(OCCN)cc2)C(=O)N[C@@H](Cc2ccc3ccccc3c2)C(=O)NC2(C(=O)N[C@@H](CCCCNC(C)=O)C(=O)N[C@@H](CC(N)=O)C(=O)N[C@@H](Cc3cccnc3)C(=O)N(C)CC(N)=O)CCOCC2)NC1=O [compound 569, MeCO-k(Me)3-Abu(1)-N-T-W-K(Ac)-aMeC(1)-AEF-2Nal-THP-K(Ac)-N-3Pya-Sar-CONH2]

same assay, conditions: read-out: IL23R Reporter Assay (micromolar); HEK293 cells containing IL-23R, IL-12RP1 and STAT-inducible firefly luciferase reporter; 10 ng/mL IL-23 (EC90); 5 h at 37° C.

Compound	IC50 [µM]
C12gEPEG2PEG2CO-hk(Me)3-Pen(3)-N(N(Me)2)-T-7MeW-K(NMeAc)-Pen(3)-TMAPF-2Nal-THP-K(NMeAc)-N-3Pya-Sar-CON(Me)2 [compound 322]	0.0048
C12gEPEG2PEG2CO-hk(Me)3-Pen(3)-N(N(Me)2)-T-7MeW-K(PEG2PEG2gEC12)-Pen(3)-TMAPF-2Nal-THP-K(NMeAc)-N-3Pya-Sar-CON(Me)2 [compound 323]	0.094
C12gEPEG2PEG2CO-k(PEG2PEG2gEC12)-Pen(3)-N(N(Me)2)-t-7MeW-Dab(NMeAc)-Pen(3)-TMAPF-2Nal-THP-K(NMeAc)-N-3Pya-Sar-CON(Me)2 [compound 385]	0.1
